According to publication PMC10528385 (Antiviral research, 2023):

Target: NA of A/Washington/01/2007 A(H3N2), WT (Influenza A virus, UniProt A7UPN3)
Test: biochemical

CCOC(=O)C1=C[C@@H](OC(CC)CC)[C@H](NC(C)=O)[C@@H](N)C1 [Oseltamivir, oseltamivir]
IC50: 0.3 nM
